The target in this assay is HER2 (human, UniProt P04626). The assay can be described thus: SPR. (In general: SPR reads the build-up and loss of mass on a sensor chip optically.)

Broadly, the Kd is the constant that tells how readily two partners part at equilibrium.

B1: CrossMabXPer Trastuzumab arm (antibody)
chain 1: [letters of about 120 residues left out]
chain 2: DIQMTQSPSSLSASVGDRVTITCRASQDVNVAVAWYQQKPGKAPKLLIYSASFLYSGVPSRFSGSRSGTDFTLTISSLQPEDFATYYCQQHYTTPPTFGQGTKVEIK
B1 registered a dissociation constant Kd of 0.74 nM.

Source of the values: patent US20200299407 (published 2020).
